Laboratory results as given in patent US8524710B2 (priority 2010, dated 2013).

Amino acid sequences for entries named in this document (tags omitted). Residues count along the entry.
UniProt P25774, 115-331: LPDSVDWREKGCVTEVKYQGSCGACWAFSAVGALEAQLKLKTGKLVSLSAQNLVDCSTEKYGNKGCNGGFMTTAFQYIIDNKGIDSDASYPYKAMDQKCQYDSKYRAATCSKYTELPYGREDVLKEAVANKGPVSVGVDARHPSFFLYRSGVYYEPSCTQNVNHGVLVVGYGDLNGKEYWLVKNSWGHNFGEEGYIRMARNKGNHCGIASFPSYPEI

Molecular target: human Cat S (Homo sapiens (Human), UniProt P25774)
Assay: biochemical

Structure (SMILES): Cc1cc(N2CC[C@H](S(=O)(=O)c3ccccc3C(F)(F)F)C2)nc(C#N)n1 [Example 16, 4-Methyl-6-[(S)-3-(2-trifluoromethyl-benzenesulfonyl)-pyrrolidin-1-yl]-pyrimidine-2-carbonitrile]
- IC50: 245 pM
